Literature values as cited in US10350239B2, “Pharmaceutical composition for treating cancer comprising trypsinogen and/or chymotrypsinogen and an active agent selected from a selenium compound, a vanilloid compound and a cytoplasmic glycolysis reduction agent” (Propanc Pty Ltd, priority 2009, dated 2019).

Details: background statement; cited from earlier work

sodium selenite/selenate
toxic level (inorganic forms of selenium): about 1500 micrograms
